# Source: PubChem BioAssay (National Center for Advancing Translational Sciences (NCATS))
# ALDH1A1 block – ALDH1A1 (human) enzyme inhibition; Purified ALDH1A1, NADH fluorescence, propionaldehyde substrate; Potency, µM (highest dose often 75.3 µM), for the others: top-dose activity, negative = inhibition, hits mostly inhibitors; 7.3% of 220,000 active; active means well fitted inhibition curve with a large enough effect, not every such curve was filed as active; inconclusive means small, poorly fitted or top-dose-only effect, or another doubt; inactive means no such curve, though single readings can be large or run the other way;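 further: potency means the concentration at half of the fitted maximal effect; plate controls were no enzyme wells and a reference inhibitor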
# miR-21 reporter – miR-21 reporter, rising signal | AID 2288 | HeLa miR-21 FLuc reporter, luciferase, 48 h | 340,000 tested, under 10 active | Potency, µM (titrated, usually from 38.3 µM), for the others: at the top dose reporter change, positive = more light; active = well fitted rising curve with a large enough effect; inconclusive = small, poorly fitted or top-dose-only effect; inactive = no such curve, though single readings can be large or run the other way;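 also: % of control where 0% means no effect; miR-21 action dims this reporter so a rising signal means less miR-21 action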
#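 HeLa miR-21-FLuc reporter line, endogenous miR-21; 2000 cells/well in DMEM/10% FBS; compound titration up to ~40uM final, 48 h, 37 degree Celsius; luciferase detection reagent, 15 min lysis, CCD luminescence.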
# Sfp inh – qHTS Assay for Inhibitors of Bacillus subtilis Sfp phosphopantetheinyl transferase (PPTase) | 4'-phosphopantetheinyl transferase ffp (Bacillus subtilis), Q9F4F7 | Biochemical Sfp PPTase activity, qHTS | Potency, µM, for inactives: max response, negative = inhibition, hits mostly inhibitors | 3.5% of 310,000 active | AID 1490, 2009; active = well fitted inhibition curve with a large enough effect; inconclusive = small, poorly fitted or top-dose-only effect, or another doubt; inactive = no such curve, though single readings can be large or run the other way;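 also: the enzyme is Sfp with the accession as filed and its product quenches rhodamine fluorescence; potency is read from the fitted curve at half-maximal effect; 0% = enzyme reaction without inhibitor and -100% = no enzyme wells; top concentration of the series not given in the record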
#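 Buffer: 50 mM Hepes-Na pH 7.6, 10 mM MgCl2, 0.01% Nonidet P-40, 0.01% BSA. Enzyme 15 nM, pre-exposed to compound 15 min; substrates then added and fluorescence change tracked over 30 min.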
# G9a block – blocks human histone lysine methyltransferase G9a; 8.8% of 350,000 active; Q96KQ7; G9a H3K9 monomethylation, AlphaScreen, 2 h; AID 504332; Potency, µM (highest dose often 102 µM), inactives show top-dose activity, negative = inhibition, usual class: inhibitors; further: potency means the concentration at half of the fitted maximal effect; on the % scale 0 is the no-effect control and ±100 the full control effect; nearly all actives have a fitted effect of over 75% in size
#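 Enzyme 20 nM + cpd, 15 min RT; add b-H3K9 pep 500 nM / SAM 20 uM; 2 h RT; anti-H3K9me1 Ab 0.5 ug/mL + SA donor / anti-rabbit acceptor beads 20 ug/mL each, 10 min; AlphaScreen read.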
# Lamin A splicing – changes lamin A minigene splicing in HeLa cells | HeLa LMNA splicing GFP/RFP minigene ratio, 48 h | Potency, µM (doses to about 46.1 µM), for the others: top-dose ratio change, negative = inhibition, actives largely listed as inhibitors | 0.01% of 200,000 active; active means well fitted inhibition curve with a large enough effect in the signal ratio, with a control signal flat, not every such curve was filed as active; inconclusive means small, poorly fitted or top-dose-only effect, or effect the other way, or a change in a side signal; the % refers to the signal ratio; further: potency means the concentration at half of the fitted maximal effect; on the % scale 0 is the no-effect control and ±100 the full control effect
#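 S3 HeLa stable clones carrying a lamin A-EGFP splicing minigene plus DsRed2 were seeded at 600 cells/well in Opti-MEM with 2% FBS, pin-dosed and incubated 48 h at 37°C. Acumen cytometry (488 nm) gave the GFP/RFP total-intensity ratio.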
# JMJD2E inh – blocks human JMJD2E demethylase activity | AID 2147 | 1.6% of 230,000 active | Potency, µM (highest dose often 57.1 µM), for inactives: top-dose activity change, negative = inhibition, usual class: inhibitors | B2RXH2 | JMJD2E catalytic domain, FDH-coupled NADH fluorescence (FDH is formaldehyde dehydrogenase);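 further: potency means the concentration at half of the fitted maximal effect; 0% = wells with enzyme and -100% = buffer wells without enzyme; nearly all actives have a fitted effect of over 50% in size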
# * marks the source's active call; other numbers are inactive results; ? = inconclusive; / = no result; ! = repeats disagree; [ ] = dose if it differs, or a comment. An excerpt weighted towards active compounds, which were near 13% of everything screened. Unless noted, the call rests on the fitted dose curve; in most records, active means well fitted curve in the direction sought with a large enough effect; inconclusive means small, poorly fitted or top-dose-only effect, or another doubt; inactive means no such curve, though single readings can be large; an effect the other way counts as inactive or inconclusive.
SMILES,ALDH1A1 block,miR-21 reporter,Sfp inh,G9a block,Lamin A splicing,JMJD2E inh
Clc1ccc(C2CC(c3ccccc3)Nc3ncnn32)cc1 (stereo not drawn),1%,1%,4%,-3%[59 µM],-4%,0%
Cc1ncc([N+](=O)[O-])n1CCO,7.9µM*!,-6%,-9%,8%[59 µM],?,-7%
CSc1nnc(-c2ccccc2Cl)n1N,5%,-4%,-8%,-32%[12.7 µM],-10%,6%
Nn1c(-c2ccccc2Cl)nnc1-c1ccccc1Cl,?,-42%,16%,3.5µM*,?,4%
N#Cc1c(Cl)nsc1NN,22µM*,-31%,40µM*,7.1µM*,-12%[46 µM],-25%
Cc1c(C#N)c(N)nc(Cl)c1C#N,?,10%,-12%,-40%,/,-1%
COc1ccc(S(=O)(=O)N(CCc2ccccc2)CC(=O)O)cc1Cl,-4%,-5%,19%,7%[12.7 µM],5%,1%
COCCCN(CC(=O)O)S(=O)(=O)c1cccc(Cl)c1,7%,2%,29%,50µM*,-11%[46 µM],-3%
Cc1cccc(C(=O)Nc2cccc(OCc3cc(=O)n4c(C)csc4n3)c2)c1,/,-14%,/,-32%[59 µM],/,/
COc1cccc(C2C(C(=O)c3cc4ccccc4o3)=C(O)C(=O)N2c2cc(C)on2)c1OC (stereo not drawn),?,-11%,19%,45µM*,-6%,?
COc1cc(C2C(C(=O)c3cc4ccccc4o3)=C(O)C(=O)N2c2cc(C)on2)cc(OC)c1OC (stereo not drawn),/,-4%,-8%,45µM*,/,/
COc1cccc2cc(C(=O)C3=C(O)C(=O)N(c4cc(C)on4)C3c3cccs3)oc12 (stereo not drawn),/,-4%,-29%,13µM*,/,/
CC(C)NC(=O)c1ccc2c(=O)n(C3CCCC3)c(=S)[nH]c2c1,0.45µM*,0%,-3%,24%[59 µM],9%,-4%
CCN(CC)CCNC(=O)c1ccc2c(=O)n(C3CCCC3)c(=S)[nH]c2c1,?,11%,-15%,20µM*,6%,-3%
O=C(c1ccc2c(=O)n(C3CCCC3)c(=S)[nH]c2c1)N1CCc2ccccc21,?,-3%,6%,-8%[59 µM],5%,-3%
CCc1ccccc1NC(=O)CNC(=O)CSC(=S)N1CCCC1,/,/,/,-10%[12.7 µM],/,/
CCCCNC(=O)c1cn(C)c2ccc(S(=O)(=O)N3CC(C)CC(C)C3)cc2c1=O (stereo not drawn),/,-2%,18%,15%,/,/
CCOc1ccccc1NC(=O)CC1Nc2ccccc2NC1=O (stereo not drawn),-8%,12%,6%,14µM*,-10%,-1%
O=C(CC1Nc2ccccc2NC1=O)NCCc1ccccc1 (stereo not drawn),?,-5%,27%,11µM*,-12%,?
COc1cccc(OCC(=O)O/N=C(\N)c2ccncc2)c1,/,-51%,19%,22%,/,/
Cc1cc(OC(C)C(=O)N2C[C@H]3C[C@@H](C2)c2cccc(=O)n2C3)c2c(C)c(C)c(=O)oc2c1 (stereo partly drawn),/,6%,12%,/,/,/
Cc1cnc(CNc2cc(-c3ccccc3C(F)(F)F)ncn2)cn1,-2%,/,-13%,-42%[0.501 µM],1%,/
COc1ccccc1-c1nccc(NCc2ccccc2)n1,4%,/,-4%,1%[0.501 µM],?,/
COc1ccccc1-c1cc(NCc2cnc(C)cn2)ncn1,?,/,50µM*,?,4%,/

# Profiles as entered above. Order of screens: ALDH1A1 block, miR-21 reporter, Sfp inh, G9a block, Lamin A splicing, JMJD2E inh
# Listed for `CSc1nnc(-c2ccccc2Cl)n1N` → 5%, -4%, -8%, -32%[12.7 µM], -10%, 6%
# Listed for `COc1cccc(C2C(C(=O)c3cc4ccccc4o3)=C(O)C(=O)N2c2cc(C)on2)c1OC` (stereo not drawn) → ?, -11%, 19%, 45µM*, -6%, ?
# Listed for `Cc1cc(OC(C)C(=O)N2C[C@H]3C[C@@H](C2)c2cccc(=O)n2C3)c2c(C)c(C)c(=O)oc2c1` (stereo partly drawn) → /, 6%, 12%, /, /, /
# Listed for `COc1cc(C2C(C(=O)c3cc4ccccc4o3)=C(O)C(=O)N2c2cc(C)on2)cc(OC)c1OC` (stereo not drawn) → /, -4%, -8%, 45µM*, /, /
# Listed for `CCOc1ccccc1NC(=O)CC1Nc2ccccc2NC1=O` (stereo not drawn) → -8%, 12%, 6%, 14µM*, -10%, -1%

# Next part.
SMILES,ALDH1A1 block,miR-21 reporter,Sfp inh,G9a block,Lamin A splicing,JMJD2E inh
COc1ccccc1-c1nccc(NCc2cnc(C)cn2)n1,3%,/,50µM*,/,9%,?
CCN(Cc1ccccc1)c1ncnc2c1cnn2-c1ccc(F)cc1,/,-31%,/,40%[59 µM],-8%[46 µM],/
CC(C)(C)OC(=O)N1CCC(c2cc(=O)n3[nH]cc(C(=O)NC4CCCC4)c3n2)CC1,?,-2%,1%,56µM*,2%,?
COc1ccc(NC(=O)c2c[nH]n3c(=O)cc(C4CCN(C(=O)OC(C)(C)C)CC4)nc23)cc1Cl,?,-5%,16%,45µM*,/,9%
